Experimental data published in ChEMBL document CHEMBL4376874, “Discovery of Potent and Selective Epidermal Growth Factor Receptor (EGFR) Bifunctional Small-Molecule Degraders” (J Med Chem, 2020).
Activity calls are given as the source filed them. The rule behind the calls is not given here.

Protein sequences, listed by entry. Tags and fused reporters are not part of them.
von Hippel-Lindau disease tumor suppressor/Epidermal growth factor receptor (Homo sapiens), P00533+P40337, UniProt P40337, whole entry, looked up, stated change not applied: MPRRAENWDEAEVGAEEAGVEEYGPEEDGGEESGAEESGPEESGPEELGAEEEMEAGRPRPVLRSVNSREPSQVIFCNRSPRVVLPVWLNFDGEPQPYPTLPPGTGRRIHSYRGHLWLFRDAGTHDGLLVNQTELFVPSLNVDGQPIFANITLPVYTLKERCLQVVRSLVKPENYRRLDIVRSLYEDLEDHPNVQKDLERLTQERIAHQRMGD

Assays:
Type in all cases: cell-based
[1] = system: von Hippel-Lindau disease tumor suppressor/Epidermal growth factor receptor (Homo sapiens), P00533+P40337 [UNDEFINED MUTATION]; test: Protac activity at VHL/EGFR exon 19 deletion mutant in human HCC827 cells assessed as induction of EGFR degradation at 10 nM treated 8 hrs post serum starvation measured after 16 hrs by Western blot analysis
[2] = system: von Hippel-Lindau disease tumor suppressor/Epidermal growth factor receptor (Homo sapiens), P00533+P40337 [UNDEFINED MUTATION]; test: Protac activity at VHL/EGFR exon 19 deletion mutant in human HCC827 cells assessed as induction of EGFR degradation treated 8 hrs post serum starvation measured after 16 hrs by Western blot analysis
[3] = system: von Hippel-Lindau disease tumor suppressor/Epidermal growth factor receptor (Homo sapiens), P00533+P40337 [L858R]; test: Protac activity at VHL/EGFR L858R mutant in human H3255 cells assessed as induction of EGFR degradation treated 8 hrs post serum starvation measured after 16 hrs by Western blot analysis
[4] = system: von Hippel-Lindau disease tumor suppressor/Epidermal growth factor receptor (Homo sapiens), P00533+P40337 [L858R]; test: Protac activity at VHL/EGFR L858R mutant in human H3255 cells assessed as induction of EGFR degradation at >=50 nM treated 8 hrs post serum starvation measured after 16 hrs by Western blot analysis relative to control
[5] = system: von Hippel-Lindau disease tumor suppressor/Epidermal growth factor receptor (Homo sapiens), P00533+P40337 [UNDEFINED MUTATION]; test: Protac activity at VHL/EGFR exon 19 deletion mutant in human HCC827 cells assessed as induction of EGFR degradation at 10 uM treated 8 hrs post serum starvation measured after 16 hrs by Western blot analysis
[6] = system: von Hippel-Lindau disease tumor suppressor/Epidermal growth factor receptor (Homo sapiens), P00533+P40337 [L858R]; test: Protac activity at VHL/EGFR L858R mutant in human H3255 cells assessed as induction of EGFR degradation at 10 uM treated 8 hrs post serum starvation measured after 16 hrs by Western blot analysis
[7] = system: von Hippel-Lindau disease tumor suppressor/Epidermal growth factor receptor (Homo sapiens), P00533+P40337 [UNDEFINED MUTATION]; test: Protac activity at VHL/EGFR exon 19 deletion mutant in human HCC827 cells assessed as reduction in AKT phosphorylation at 100 nM treated 8 hrs post serum starvation measured after 4 hrs by Western blot analysis
[8] = system: von Hippel-Lindau disease tumor suppressor/Epidermal growth factor receptor (Homo sapiens), P00533+P40337 [UNDEFINED MUTATION]; test: Protac activity at VHL/EGFR exon 19 deletion mutant in human HCC827 cells assessed as induction of EGFR degradation at 100 nM treated 8 hrs post serum starvation measured after 4 hrs by Western blot analysis relative to control
[9] = system: von Hippel-Lindau disease tumor suppressor/Epidermal growth factor receptor (Homo sapiens), P00533+P40337 [UNDEFINED MUTATION]; test: Protac activity at VHL/EGFR exon 19 deletion mutant in human HCC827 cells assessed as induction of EGFR degradation at 100 nM treated 8 hrs post serum starvation measured after 12 to 24 hrs by Western blot analysis relative to control
[10] = system: von Hippel-Lindau disease tumor suppressor/Epidermal growth factor receptor (Homo sapiens), P00533+P40337 [UNDEFINED MUTATION]; test: Protac activity at VHL/EGFR exon 19 deletion mutant in human HCC827 cells assessed as induction of EGFR degradation at 0.1 to 1 uM incubated for 8 hrs in absence of FBS by Western blot analysis
[11] = system: von Hippel-Lindau disease tumor suppressor/Epidermal growth factor receptor (Homo sapiens), P00533+P40337 [L858R]; test: Protac activity at VHL/EGFR L858R mutant in human H3255 cells assessed as induction of EGFR degradation at 0.1 to 1 uM incubated for 8 hrs in absence of FBS by Western blot analysis
[12] = system: von Hippel-Lindau disease tumor suppressor/Epidermal growth factor receptor (Homo sapiens), P00533+P40337 [L858R]; test: Protac activity at VHL/EGFR L858R mutant in human H3255 cells assessed as induction of EGFR degradation at 100 nM measured after 8 hrs in presence of neddylation inhibitor MLN4924 by Western blot analysis
[13] = system: von Hippel-Lindau disease tumor suppressor/Epidermal growth factor receptor (Homo sapiens), P00533+P40337 [L858R]; test: Protac activity at VHL/EGFR L858R mutant in human H3255 cells assessed as induction of EGFR degradation at 100 nM measured after 8 hrs in presence of VHL inhibitor VH-298 by Western blot analysis
[14] = system: von Hippel-Lindau disease tumor suppressor/Epidermal growth factor receptor (Homo sapiens), P00533+P40337 [L858R]; test: Protac activity at VHL/EGFR L858R mutant in human H3255 cells assessed as induction of EGFR degradation at 100 nM measured after 8 hrs in presence of negative control MS39N by Western blot analysis
[15] = system: von Hippel-Lindau disease tumor suppressor/Epidermal growth factor receptor (Homo sapiens), P00533+P40337 [L858R]; test: Protac activity at VHL/EGFR L858R mutant in human H3255 cells assessed as induction of EGFR degradation at 100 nM measured after 8 hrs in presence of EGFR inhibitor gefitinib by Western blot analysis
[16] = system: von Hippel-Lindau disease tumor suppressor/Epidermal growth factor receptor (Homo sapiens), P00533+P40337 [UNDEFINED MUTATION]; test: Reversible protac activity at VHL/EGFR exon 19 deletion mutant in human HCC827 cells assessed as recovery of EGFR degradation at 100 nM preincubated for 12 hrs followed by compound washout and measured after 24 hrs by Western blot analysis
[17] = system: von Hippel-Lindau disease tumor suppressor/Epidermal growth factor receptor (Homo sapiens), P00533+P40337 [UNDEFINED MUTATION]; test: Reversible protac activity at VHL/EGFR exon 19 deletion mutant in human HCC827 cells assessed as recovery of EGFR phosphorylation at 100 nM preincubated for 12 hrs followed by compound washout and measured after 24 hrs by Western blot analysis
[18] = system: von Hippel-Lindau disease tumor suppressor/Epidermal growth factor receptor (Homo sapiens), P00533+P40337 [UNDEFINED MUTATION]; test: Reversible protac activity at VHL/EGFR exon 19 deletion mutant in human HCC827 cells assessed as recovery of AKT phosphorylation at 100 nM preincubated for 12 hrs followed by compound washout and measured after 48 hrs by Western blot analysis
[19] = system: von Hippel-Lindau disease tumor suppressor/Epidermal growth factor receptor (Homo sapiens), P00533+P40337 [L858R]; test: Reversible protac activity at VHL/EGFR L858R mutant in human H3255 cells assessed as recovery of EGFR degradation at 100 nM preincubated for 12 hrs followed by compound washout and measured up to 48 hrs by Western blot analysis
[20] = system: von Hippel-Lindau disease tumor suppressor/Epidermal growth factor receptor (Homo sapiens), P00533+P40337 [L858R]; test: Reversible protac activity at VHL/EGFR L858R mutant in human H3255 cells assessed as recovery of EGFR phosphorylation at 100 nM preincubated for 12 hrs followed by compound washout and measured up to 48 hrs by Western blot analysis
[21] = system: von Hippel-Lindau disease tumor suppressor/Epidermal growth factor receptor (Homo sapiens), P00533+P40337 [UNDEFINED MUTATION]; test: Protac activity at VHL/EGFR exon 19 deletion mutant in human HCC827 cells assessed as induction of EGFR degradation at 100 nM measured after 16 hrs by LC-MS analysis relative to control

COc1cc2ncnc(Nc3ccc(F)c(Cl)c3)c2cc1OCCCN1CCN(C(=O)CCCCCCCCCC(=O)N[C@H](C(=O)N2C[C@H](O)C[C@H]2C(=O)NCc2ccc(-c3scnc3C)cc2)C(C)(C)C)CC1
Activity [1]: Active
Activity [2]: Dose-dependent effect
Activity [3]: Dose-dependent effect
%max [4]: > 95%
Activity [5]: inactive
Activity [6]: Active
Activity [7]: Active
Activity [8]: 50%
Activity [9]: 100%
Activity [10]: Active
Activity [11]: Active
Activity [12]: inactive
Activity [13]: inactive
Activity [14]: inactive
Activity [15]: inactive
Activity [16]: Active
Activity [17]: Active
Activity [18]: Active
Activity [19]: Active
Activity [20]: Active
Activity [21]: > 75%
